{"source": "patent US20230338568A1", "about": "“NOVEL ISOMERIC COMPOUNDS COMPRISING A RING-OPENED THIOSUCCINIMIDE GROUP, AN OLIGOPEPTIDE FRAGMENT AND A CHIRAL MOIETY” (priority 2020, published 2023)", "key": {"[1]": {"conditions": "cited from earlier work; for Organ Weight: Body Weight / Organ Weight: Salivary Gland / Organ Weight: Thymus: Main Phase"}, "[2]": {"system": "NCI-N87 human gastric cancer xenograft", "test": "In vivo anti-tumor efficacy, NCI-N87 human gastric cancer xenograft model", "set-up": "species or system female BALB/c nude mice", "excerpt": "HCC1954 human breast cancer xenograft model (HCC1954 model) and NCI-N87 human gastric cancer xenograft model (NCI-N87 model) in female BALB/c nude mice are provided by ATCC. Cynomolgus monkeys are provided by GuangZhou XiangGuan, Ltd..\nObjective: The objective of this study was to evaluate the in vivo anti-tumor efficacy of α-ADCs after single dose IV administration in the subcutaneous HCC1954 human breast cancer xenograft model (HCC1954 model) and NCI-N87 human gastric cancer xenograft model (NCI-N87 model) in female BALB/c nude mice."}, "[3]": {"system": "HER2 negative cell MDA-MB-468", "test": "Cytotoxicity of α-ADCs in HER2 negative cell MDA-MB-468 (CellTiter-Glo)", "assay_type": "cell-based", "experimental": "(§1) Cell viability is tested using CellTiter-Glo® Luminescent Kit (Promega, Cat.# G7573) read by a Biotek Cytation3 Imaging reader.\n(§2) Study design was shown as in Table 21 and Table 22. […] Cell vitality formula: Viability = (RLU (X) - RLU (Puro))/(RLU (Control) - RLU (Puro)) ^∗ 100%. A logistic model (4-parameter) will be used for data processing, IC50 calculation and curve fitting by Prism 6 software."}, "[4]": {"system": "HCC1954 human breast cancer xenograft", "test": "In vivo anti-tumor efficacy, HCC1954 human breast cancer xenograft model", "set-up": "species or system female BALB/c nude mice"}, "[5]": {"system": "HER2 positive cell HCC1954", "test": "Cytotoxicity of α-ADCs in HER2 positive cell HCC1954 (CellTiter-Glo)", "assay_type": "cell-based, Human", "experimental": "as §1, §2"}, "[6]": {"conditions": "Main Phase (n=3 / gender), Female, 10 mg/kg (HNSTD)"}, "[7]": {"conditions": "Main Phase (n=3 / gender), Male, 10 mg/kg (HNSTD)"}, "[8]": {"conditions": "Recovery phase (n=2 / gender), Female, 10 mg/kg (HNSTD)"}, "[9]": {"conditions": "Recovery phase (n=2 / gender), Male, 10 mg/kg (HNSTD)"}}, "note": "Like-named read-outs stand apart in the source and are kept apart here."}
{"substance": "Kadcyla", "values": [{"measurement": "Kidney: Infiltrate, Mononuclear Cell", "setting": "[1]; [6]", "value": "⅓"}, {"measurement": "Liver: Increased Sinusoidal Leukocytes", "setting": "[1]; [6]", "value": "⅓"}, {"measurement": "Lung: Infiltrate, Mononuclear Cell, Interstitium", "setting": "[1]; [6]", "value": "⅓"}, {"measurement": "Sciatic Nerve: Axonal Degeneration", "setting": "[1]; [6]", "value": "⅓"}, {"measurement": "Spleen: Mitoses/Arrested Metaphase, Reticuloendothelial Cells", "setting": "[1]; [6]", "value": "⅓"}, {"measurement": "Kidney: Infiltrate, Mononuclear Cell", "setting": "[1]; [7]", "value": "⅔"}, {"measurement": "Kidney: Mitoses/Arrested Metaphase, Tubular Epithelial Cells", "setting": "[1]; [7]", "value": "⅓"}, {"measurement": "Lung: Infiltrate, Mononuclear Cell, Interstitium", "setting": "[1]; [7]", "value": "⅓"}, {"measurement": "Sciatic Nerve: Axonal Degeneration", "setting": "[1]; [7]", "value": "⅔"}, {"measurement": "Thymus: Lymphoid Depletion", "setting": "[1]; [7]", "value": "⅔"}, {"measurement": "Organ Weight: Body Weight", "setting": "[1]; Female, 10 mg/kg (HNSTD)", "value": -12.5, "unit": "%"}, {"measurement": "Organ Weight: Salivary Gland", "setting": "[1]; Female, 10 mg/kg (HNSTD)", "value": -1.9, "unit": "%"}, {"measurement": "Organ Weight: Thymus", "setting": "[1]; Female, 10 mg/kg (HNSTD)", "value": -63.7, "unit": "%"}, {"measurement": "Organ Weight: Body Weight", "setting": "[1]; Male, 10 mg/kg (HNSTD)", "value": -7.1, "unit": "%"}, {"measurement": "Organ Weight: Salivary Gland", "setting": "[1]; Male, 10 mg/kg (HNSTD)", "value": -24.6, "unit": "%"}, {"measurement": "Organ Weight: Thymus", "setting": "[1]; Male, 10 mg/kg (HNSTD)", "value": -31.2, "unit": "%"}, {"measurement": "Sciatic Nerve: Axonal Degeneration", "setting": "[1]; [8]", "value": "½"}, {"measurement": "Spinal Cord: Axonal Degeneration, Dorsal Funiculus", "setting": "[1]; [8]", "value": "½"}, {"measurement": "Sciatic Nerve: Axonal Degeneration", "setting": "[1]; [9]", "value": "½"}, {"measurement": "Spinal Cord: Axonal Degeneration, Dorsal Funiculus", "setting": "[1]; [9]", "value": "½"}, {"measurement": "toxicity dose", "setting": "[1]; comparison value for Kadcyla", "value": 10, "unit": "mg/kg"}, {"measurement": "T/C", "setting": "[2]; 5 mg/kg single dose IV", "value": 41.61, "unit": "%"}, {"measurement": "TGI", "setting": "[2]; 5 mg/kg single dose IV", "value": 67.93, "unit": "%"}, {"measurement": "mean tumor size", "setting": "[2]; 5 mg/kg single dose IV", "value": 579, "unit": "mm^3"}, {"measurement": "T/C", "setting": "[2]; 15 mg/kg single dose IV", "value": 4.66, "unit": "%"}, {"measurement": "TGI", "setting": "[2]; 15 mg/kg single dose IV", "value": 110.87, "unit": "%"}, {"measurement": "mean tumor size", "setting": "[2]; 15 mg/kg single dose IV", "value": 65, "unit": "mm^3"}, {"measurement": "IC50", "setting": "[3]; HER2 negative MDA-MB-468, 72 h, CellTiter-Glo", "value": 10.6, "unit": "nM"}, {"measurement": "inhibitory effect in HER2-negative cells", "setting": "[3]; MDA-MB-468, 72 h", "value": "off-target cytotoxicity at high concentration"}, {"measurement": "T/C", "setting": "[4]; 2.5 mg/kg single dose IV", "value": 6.47, "unit": "%"}, {"measurement": "mean tumor size", "setting": "[4]; 2.5 mg/kg single dose IV", "value": 144, "unit": "mm^3"}, {"measurement": "T/C", "setting": "[4]; 5 mg/kg single dose IV", "value": 1.57, "unit": "%"}, {"measurement": "mean tumor size", "setting": "[4]; 5 mg/kg single dose IV", "value": 35, "unit": "mm^3"}, {"measurement": "effect on proliferation of HER2-positive cells compared with comparator", "setting": "[5]; HCC1954, 72 h", "value": "slightly stronger effect than α-ADCs"}, {"measurement": "IC50", "setting": "[5]; HER2 positive HCC1954, 72 h, CellTiter-Glo", "value": 0.0947, "unit": "nM"}]}
